According to patent publication US10226464B2, “Small molecule NF-κB inhibitors” (ImmuneTarget, Inc., priority 2015, dated 2019):

Tested on: NF-κB
Assay: NF-κB GFP Assay (NFκB/Jurkat/GFP transcriptional reporter cell line)
Assay type: cell-based
Settings: Homo sapiens; NF-κB/Jurkat/GFP reporter cells, TNF-α 5 ng/ml, 24 hours; read-out: NF-KB GFP IC50
Description: NFκB/Jurkat/GFP transcriptional reporter cell line was obtained from SBI System Biosciences. NF-κB/Jurkat/GFP™ Reporter cells (5×10^5 cells) were plated at a concentration of 1 million cells/ml into each well of a 24-well plate. TNF-α (5 ng/ml) was added. Compounds were added via serial dilutions to corresponding wells. After 24 hours, 100 μl of the cells were transferred to a well of a Costar® UV plate (96 well, No lid, w/ UV Transparent Flat Bottom, Corning, N.Y., Cat#3635) and the intensity of GFP fluorescence was measured (Excitation 485+/−20, Emission 528+/−20) in a Synergy™ HT Multi-Detection Microplate Reader (BioTech, Winooski, Vt.). The intensities of GFP measured were plotted against the […].

## COc1cc(OC)c2cc3c(=O)[nH]c(=S)nc-3oc2c1 [Compound 18, 6,8-dimethoxy-2-thioxo-2H-chromeno[2,3-d]pyrimidin-4(3H)-one]
  IC50: 10 µM
